Measurements reported in PubChem BioAssay (Tox21).
Values joined by “and” are separate entries in the source; they are usually repeats but may differ in a detail not shown here. Identical values can stand only once. The list shows a part of the results, in another mix than the full data. Active and inactive are the calls of the source. Calls come from the whole dose curve.
% is set by controls: 0 for no effect and ±100 for the full control effect.

Protein sequences, listed by entry. Tags and fused reporters are not part of them. Lines headed by an entry give the natural chain unless they say otherwise; changes in a name come on top.
UniProt P11229: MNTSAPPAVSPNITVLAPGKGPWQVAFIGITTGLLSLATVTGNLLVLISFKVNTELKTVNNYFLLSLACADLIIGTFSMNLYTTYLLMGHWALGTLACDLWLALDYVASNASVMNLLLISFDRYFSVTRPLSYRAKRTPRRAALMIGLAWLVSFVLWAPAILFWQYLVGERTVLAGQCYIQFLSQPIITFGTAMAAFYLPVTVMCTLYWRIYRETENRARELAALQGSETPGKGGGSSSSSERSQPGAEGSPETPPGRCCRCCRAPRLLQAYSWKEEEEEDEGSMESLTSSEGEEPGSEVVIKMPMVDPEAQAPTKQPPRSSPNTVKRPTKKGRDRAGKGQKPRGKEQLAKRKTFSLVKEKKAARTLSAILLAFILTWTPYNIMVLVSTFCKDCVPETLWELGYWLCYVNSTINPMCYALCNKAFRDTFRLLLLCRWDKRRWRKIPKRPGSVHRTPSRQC

Each compound was assayed against Muscarinic acetylcholine receptor M1 (Homo sapiens) (UniProt P11229) (assay: Cholinergic receptor muscarinic 1 (CHRM1) small molecule agonists, cell-based qHTS assay (AID 1963589; note: nearly all actives have a fitted effect of over 35% in size)). Details: CHRM1-CHO cells, agonist mode, calcium flux fluorescence; at 15.8 µM (top of the series).
Description: National Center for Advancing Translational Sciences [NCATS]
Division of Preclinical Innovation [DPI]
U.S. Environmental Protection Agency [EPA]
National Institutes of Environmental Health Sciences [NIEHS]
National Toxicology Program [NTP]
U.S. Food and Drug Administration [FDA]
The CHRM1 is a muscarinic receptor. This receptor plays a crucial role in learning and memory processes and has long been identified as a promising therapeutic target for the improvement of cognitive decline in Alzheimer's disease (AD). The CHRM1-CHO cell line stably expressing human muscarinic acetylcholine receptor M1 (CHRM1) can be used for screening agonists and antagonists of interactions between CHRM1 and its ligands. The CHRM1-CHO Calcium Flux Assay is a homogeneous fluorescence-based assay for detecting the intracellular calcium level using FDSS kinetic plate reader system.
CHRM1-CHO cells were dispensed at 1000 cells/3uL/well in 1536-well black-clear bottom plates using a Multidrop Dispenser. After the assay plates were incubated at a 37 C/5% CO2 incubator for 18 h, 3 uL of Dye Loading Buffer was transferred to the assay plate by a Flying Reagent Dispenser. The assay plates were incubated at 37 C for 1h. For agonist mode, 23 nL of compounds dissolved in DMSO, positive controls or DMSO only was transferred to the assay plate by a pin tool. […] Each test compound was measured at 15 concentrations in three independent runs.
In the case of `CCC(C)(OOC(C)(C)C)OOC(C)(C)C`, the activation is reported as inactive: 0.0465%.

Same assay, conditions: CHRM1-CHO cells, agonist mode, calcium flux fluorescence; at 35.3 µM (top of the series)
In the case of `NC(=O)Nc1ccc([As](=O)(O)O)cc1`, the activation is reported as inactive: -0.032%. `C[C@H]1C(=O)O[C@@H]2CCN3CC=C(COC(=O)[C@](C)(O)[C@]1(C)O)[C@H]23` was tested, and the activation was inactive: 0.0447%. With `CN(C(=O)Cc1ccc(Cl)c(Cl)c1)[C@H]1CC[C@@]2(CCCO2)C[C@@H]1N1CCCC1` the activation was inactive: 0%. With `CCN(CC)CCOC(=O)C(O)(c1ccccc1)c1ccccc1` the activation was inactive: 6.88%. For `CN(C(=O)Cc1ccccc1)[C@H]1CC[C@@]2(CCCO2)C[C@@H]1N1CCCC1`, the activation was inactive: 0.0053%.

Same assay, conditions: CHRM1-CHO cells, agonist mode, calcium flux fluorescence; at 76.8 µM (top of the series)
`NC(=O)Nc1ccc([As](=O)(O)O)cc1` was tested, and the activation was inactive: 2.38%. In the case of `O=[N+]([O-])c1ccc(S(=O)(=O)O)c([N+](=O)[O-])c1`, the activation is reported as inactive: 0.724%. With `CCCCCCCCCCCCCC[P+](CCCCCC)(CCCCCC)CCCCCC` the activation was inactive: -0.604%. In the case of `CCCCOP(OCCCC)OCCCC`, the activation is reported as inactive: 0.0224%. `CN(N=O)C(=N)N[N+](=O)[O-]` was tested, and the activation was inactive: 0.0189%. For `CN(C(=O)Cc1cccc2occc12)[C@H]1CC[C@@]2(CCCO2)C[C@@H]1N1CCCC1`, the activation was inactive: -0.846%. `CCCCO[P+](=O)OCCCC` was tested, and the activation was inactive: -0.213% and inactive: 0.0558%. In the case of `O=[P+](Oc1ccccc1)Oc1ccccc1`, the activation is reported as inactive: -0.0005%. `COP(=S)(Cl)OC` was tested, and the activation was inactive: -0.101%. `COC(=O)Cl` was tested, and the activation was inactive: 1.05%. With `O=[N+]([O-])c1ccc([N+](=O)[O-])cc1` the activation was inactive: 2.88%. For `CCCCC(CC)CO[P+](=O)OCC(CC)CCCC` (stereo not drawn), the activation was inactive: -0.111%. In the case of `Cc1cc([N+](=O)[O-])cc([N+](=O)[O-])c1O`, the activation is reported as inactive: 3.47% and inactive: 2.51%. `CCNC(C)Cc1ccc2c(c1)OCO2` (stereo not drawn) was tested, and the activation was inactive: 0.103%. `O=[p+]1oc2ccccc2c2ccccc21` (stereo not drawn) was tested, and the activation was inactive: 0.602%. For `O=P(Cl)(Cl)c1ccccc1`, the activation was inactive: 9.84%. In the case of `CC(C)CCCCCCCOP(OCCCCCCCC(C)C)Oc1ccccc1`, the activation is reported as inactive: 0.238%. In the case of `CCOC(=O)Cl`, the activation is reported as inactive: -0.387%. `O=C(Cl)Oc1ccccc1` was tested, and the activation was inactive: 0.891%. `O=C(Cl)OCCOC(=O)Cl` was tested, and the activation was inactive: 0.072%. For `C[C@H]1C(=O)O[C@@H]2CCN3CC=C(COC(=O)[C@](C)(O)[C@]1(C)O)[C@H]23`, the activation was inactive: -0.163% and inactive: -1.22%. For `N#CSc1ccc([N+](=O)[O-])cc1[N+](=O)[O-]`, the activation was inactive: 8.05%. In the case of `O=P(Cl)(Oc1ccccc1)Oc1ccccc1`, the activation is reported as inactive: 0.0209%. `ClP(Cl)c1ccccc1` was tested, and the activation was inactive: 0.0478%. `CCOP(=S)(CC)Sc1ccccc1` (stereo not drawn) was tested, and the activation was inactive: -0.229%. With `Cc1cc([N+](=O)[O-])c(O)c([N+](=O)[O-])c1` the activation was inactive: 1.98%. For `CC(C)OP(=S)(OC(C)C)SCCNS(=O)(=O)c1ccccc1`, the activation was inactive: 0.607%.
